{"source": "patent US20130210034A1", "about": "“COMPLEX PHOSPHOPROTEIN ACTIVATION PROFILES” (BECKMAN COULTER, INC., priority 2005, published 2013)", "molecules": {"B1": {"name": "Interleukin- 3 (protein, UniProt P08700 20-152, looked up)", "Interleukin-3": "APMTQTTPLKTSWVNCSNMIDEIITHLKQPPLPLLDFNNLNGEDQDILMENNLRRPNLEAFNRAVKSLQNASAIESILKNLLPCLPLATAAPTRHPIHIKDGDWNEFRRKLTFYLKTLENAQAQQTTLSLAIF", "notes": "colony-stimulating cytokine"}}, "key": {"pERK": {"system": "pERK", "assay": "Phosphoprotein kinetic profiles in bone marrow samples from healthy donors", "type": "cell-based, human", "conditions": "CD34^+, CD117^+ cells, healthy donor samples", "method": "(§1) Phosphoprotein kinetic profiles were analyzed in bone marrow aspiration samples from nine healthy, adult donors (i.e., normal bone marrow or NBM) and from five AML patients. Samples from healthy donors included 5 males and 4 females, ranging in age from 26 to 49 years. Approximately 10 to 20 mL of bone marrow (BM) samples were collected from the posterior iliac crest of the volunteers using IRB approved protocols. The BM samples were filtered using a 40 μm Nylon cell strainer to remove marrow particles and the white blood cell concentration determined using a blood analyzer. […] The samples were immediately used for subsequent experimentation.\n(§2) To assess the signal transduction response after growth factor simulation, 100 to 200 μL of processed samples including about 2×10^6 WBC/100 μL were added to tubes and incubated at 37° C. for 30 minutes. For inhibition experiments, cells were incubated with 100 μM U0126, 1 μg/mL rapamycin, or both for at least 20 minutes prior to cytokine addition and in all cases for 30 min prior to formaldehyde addition. […] After stimulation the cells were immediately fixed by the addition of formaldehyde to a final concentration of 4% v/v and incubated for 10 minutes at room temperature. Following fixation, red blood cells were lysed by the addition of TRITON-X/PBS solution (0.1% v/v final concentration Triton X-100) supplemented with a 1 x phosphatase inhibitor cocktail (PIC; final concentrations: 0.2 mM sodium orthovanadate, 2 mM sodium pyrophosphate decahydrate, 2 mM [3-glycerophosphate, and 10 mM sodium fluoride) and incubation at 37° C. for 20 minutes. The incubated solution was chilled by the addition of ice-cold Wash Buffer (final concentration 1×PBS and either 4% bovine serum albumin (BSA) or 4% heat-inactivated fetal bovine serum (FBS), supplemented with 1×PIC), and the samples were centrifuged at 300 g for 6 minutes at 4° C.). If the lysis was incomplete, samples were retreated with 0.1% Triton X-100 at 37° C. for 10 to 20 minutes. […]\n(§3) To stain cells with fluorescent conjugated monoclonal antibodies, the incubated solution was centrifuged to remove the supernatant and the pellet was incubated for 60 minutes at 4° C. with an antibody staining solution including 0.25 μg to 0.50 μg of pS6-Pacific Blue, pERK-ALEXA 488, pSTAT5-ALEXA 647, CD34-PE, CD45-PerCP, and CD117-PC7. Samples were washed three times with ice-cold Wash Buffer supplemented with 1×PIC, resuspended in 0.5 mL ice-cold Wash Buffer supplemented with 1×PIC including 0.5 μg/mL DAPI, and analyzed by flow cytometryusing a BD LSR II Flow Cytometer, equipped with a High Throughput Sampler (HTS). […]"}, "pS6": {"system": "pS6", "assay": "Phosphoprotein kinetic profiles in bone marrow samples from healthy donors", "type": "cell-based, human", "conditions": "CD34^+, CD117^+ cells, healthy donor samples", "method": "as §1, §2, §3"}}, "note": "Where “and” joins values, the source holds several entries; their conditions need not be identical. Identical values can stand only once.", "data": [{"molecule": "B1", "values": [{"measurement": "pERK Amp (peak amplitude of fold stimulation)", "setting": "pERK", "value": "6.9 and 6.9 ± 2.4"}, {"measurement": "pERK RI (response interval)", "setting": "pERK", "value": "Variable"}, {"measurement": "pS6 Amp (peak amplitude of fold stimulation)", "setting": "pS6", "value": "4.2 and 4.2 ± 1.0"}, {"measurement": "pS6 RI (response interval)", "setting": "pS6", "value": "Variable"}]}]}
